# Antibody variant affinities, Ab-14 light chain, assay B

The measurements come from Li et al. 2023 (doi:10.1038/s41467-023-39022-2) through the FLAb antibody collection.

Antigen: PDVDLGDISGINAS, a 14-residue peptide of the SARS-CoV-2 spike HR2 region.

Parent scFv Ab-14: VH joined to VL by the linker GGGGSGGGGSGGGGS. Changes lie in the light chain CDRs alone.
VH: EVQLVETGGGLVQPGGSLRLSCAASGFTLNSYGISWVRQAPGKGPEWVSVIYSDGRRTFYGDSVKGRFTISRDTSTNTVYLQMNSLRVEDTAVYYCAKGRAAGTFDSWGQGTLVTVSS
VL: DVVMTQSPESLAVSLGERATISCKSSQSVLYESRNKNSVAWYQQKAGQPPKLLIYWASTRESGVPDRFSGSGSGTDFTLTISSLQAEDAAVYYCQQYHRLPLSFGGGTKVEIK

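The parent was found by panning a naive human phage display library on the peptide. The variants were designed computationally from a first round of random CDR variants and then made and measured. Group labels follow the data file (Ctrl: baseline library sampled from a position-specific scoring matrix, with some repeated check sequences; Rand: our label for a block that the file lists under HC and that is probably the random mutants of the ten best first-round binders; GP: Gaussian process model; HC: hill climbing; Gen: genetic algorithm; Gibbs: Gibbs sampling; a sequence that several methods proposed may carry one label only). The scFvs were displayed on barcoded MATa yeast, the peptide on MATalpha yeast. The frequency of each diploid, read from paired DNA barcodes, reflects how well the two displayed proteins bind. Each replicate has its own calibration line, from reference interactions of the BCL2 family. Mating was done six times.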

Variants are written as CDR1, CDR2 and CDR3 of the light chain (limits as in the source). Parent: KSSQSVLYESRNKNSVA, WASTRES, QQYHRLPLS. This list holds designs with at most six substitutions. Affinities are written as log10 Kd with Kd in nM; a lower number is a better binder. Replicates are averaged; those with no signal do not enter the mean. Where no diploid with the target was found in any replicate, the entry reads "nd": below detection, most likely a poor binder, though not proof of it. In the paper, a design with two or fewer of six values counts as a poor binder.

* KMQQSVLEESRNKNSVA / WASTRES / QQYHRLHLE [Ctrl] = nd (0 of 6 replicates; controls 0 of 18)
* KSSQGVLYESRNKNSVA / TASTRES / QQYHRLPLS [Ctrl] = 0.25 (6 of 6 replicates; controls 3 of 18)
* KSSQSVPEESRNKNSVA / WASTRES / QQYHRLWLS [Ctrl] = 1.89 (3 of 6 replicates; controls 0 of 18)
* KFSQSVYYGSRTKNSVA / NASTRES / QQYHRLPLS [Rand] = 0.09 (6 of 6 replicates; controls 0 of 18)
* KSSQSVLYESYNFNAVA / WASTRES / QQYHRLPLS [Ctrl] = 2.65 (1 of 6 replicates; controls 0 of 18)
* KMSQSWLYESRNKNSVA / NASTRMS / QQYHRLPLS [GP_Gen] = -0.26 (6 of 6 replicates; controls 0 of 18)
* KSSNSVLYESRNKNSVA / EASTRES / QQYHTLPLS [Ctrl] = 1.99 (5 of 6 replicates; controls 0 of 18)
* KSSQSVLYESRYKNSVA / DASTRES / QQYHRLPLS [Ctrl] = 0.79 (6 of 6 replicates; controls 1 of 18)
* HSSISVEYESRNKNSVA / NASSRES / QQYHRLPLS [GP_HC] = 0.52 (6 of 6 replicates; controls 1 of 18)
* KLSQSVQYESRNKNSVA / NASTRLS / QQYHRLPLS [GP_Gen] = -0.18 (6 of 6 replicates; controls 2 of 18)
* KSSQSVLYESRNKNSVA / WASTRES / QQYKELPLS [Ctrl] = 1.68 (3 of 6 replicates; controls 0 of 18)
* KLSCSVLYEQRNKNSMA / WASTRES / QQYHRLPLS [Ctrl] = 2.75 (1 of 6 replicates; controls 0 of 18)
* KLSQSVLYEQRMKNSVA / NASTRES / QQYHRLPLS [GP_Gen] = 0.41 (6 of 6 replicates; controls 1 of 18)
* KCSQSVLYESSEKNSVA / WASTRES / QQYHRLPES [Ctrl] = nd (0 of 6 replicates; controls 1 of 18)
* KLDQMVVYESRNKNSVA / NASTRES / QQYHRLPLS [GP_Gibbs] = -0.29 (6 of 6 replicates; controls 1 of 18)
* KVEQSVLYDTRNKNSVA / WASTRES / QQYHRLPLS [Ctrl] = 1.70 (6 of 6 replicates; controls 1 of 18)
* KSSQSVLYESMNKNSVA / WASTRVS / QQYHRLPLS [Ctrl] = 0.61 (6 of 6 replicates; controls 0 of 18)
* KYSQSVLGEQRNKNSVA / DASTRES / QQYHRLPLS [GP_HC] = -0.27 (6 of 6 replicates; controls 1 of 18)
* KFSQSDLYESRNKNSQA / WASTRES / QQYHREPLS [Ctrl] = nd (0 of 6 replicates; controls 1 of 18)
* KSMPSVLYESRNKNSVA / TDSTRES / QQYHRLPLS [Ctrl] = nd (0 of 6 replicates; controls 0 of 18)
* KISQSVLRESRNKNSVA / WASTREV / QQYHYLPLS [Ctrl] = 0.51 (6 of 6 replicates; controls 2 of 18)
* KLSQSNLYESRNKNSVA / EASQRES / QQYHRLPLS [GP_Gen] = -0.53 (6 of 6 replicates; controls 0 of 18)
* HLSQSWLYESRNKNSVA / NASTRMS / QQYHRLPLS [GP_Gen] = 0.24 (6 of 6 replicates; controls 0 of 18)
* KSSQSVLYESRNTNSVA / AASTRES / QQYARLPLS [Ctrl] = 0.55 (6 of 6 replicates; controls 1 of 18)
* ESSQSVLYESMNQNSVA / SASTREE / QQYHRLPLS [Ctrl] = 1.04 (6 of 6 replicates; controls 0 of 18)
* KLQQSALYESRNKNSVA / NASQRES / QQYHRLPLS [GP_Gen] = -0.01 (6 of 6 replicates; controls 0 of 18)
* KISQSVEYGSRNKNSVA / WASTRES / QQYHRLPLS [Ctrl] = 0.78 (6 of 6 replicates; controls 2 of 18)
* KSSQSFLYEDRNKNSVA / WASTRES / QQYHRLPLS [Ctrl] = 1.81 (5 of 6 replicates; controls 0 of 18)
* KLMQSVLYESRNKNSVA / DASQRES / QQYHRLPLS [GP_Gen] = -0.07 (6 of 6 replicates; controls 1 of 18)
* KLSQSVLYESRNKNNVA / QASTRES / QQYHRLPLS [GP_Gen] = -0.52 (6 of 6 replicates; controls 0 of 18)
* KSSQSVLYESRNKNSVA / WASTRRT / QQYHRLPLS [Ctrl] = nd (0 of 6 replicates; controls 0 of 18)
* KISQSKLMESRNLNSVA / WASTRSS / QQYHRLPLS [Ctrl] = 2.20 (6 of 6 replicates; controls 0 of 18)
* KLSQSVLYESRNKNSVA / NASTRES / QQYHRLPLG [GP_Gen] = -0.20 (6 of 6 replicates; controls 2 of 18)
* KFSQSHLYESRNKNSVA / NASQRES / QQYHRLPLS [GP_Gen] = -0.08 (6 of 6 replicates; controls 0 of 18)
* KSLQSVQYESRNKNSVA / NASTRED / QQYHRLPLS [GP_HC] = 0.34 (6 of 6 replicates; controls 2 of 18)
* KSSQLVDFESRNKNSVA / DASTRES / QQYHRLPLS [GP_HC] = 0.77 (6 of 6 replicates; controls 1 of 18)
* HSSPSVEYESRNKNSVA / NASDRES / QQYHRLPLS [GP_HC] = nd (0 of 6 replicates; controls 0 of 18)
* KVSQEVDYESRNKNSVA / DASTRES / QQYHRLPLS [GP_Gen] = 0.18 (6 of 6 replicates; controls 1 of 18)
* KLQQSVLYESRNKNSVA / NASYRES / QQYHRLPLS [GP_Gen] = -0.28 (6 of 6 replicates; controls 1 of 18)
* KVSQSVLYEERNKNSVA / NGSTRES / QQYHRLPLS [GP_Gen] = -0.41 (6 of 6 replicates; controls 1 of 18)

The 4 strongest on average among those seen in every replicate, once more:

- KLSQSNLYESRNKNSVA / EASQRES / QQYHRLPLS [GP_Gen]: -0.53 (6 of 6 replicates; controls 0 of 18)
- KLSQSVLYESRNKNNVA / QASTRES / QQYHRLPLS [GP_Gen]: -0.52 (6 of 6 replicates; controls 0 of 18)
- KVSQSVLYEERNKNSVA / NGSTRES / QQYHRLPLS [GP_Gen]: -0.41 (6 of 6 replicates; controls 1 of 18)
- KLDQMVVYESRNKNSVA / NASTRES / QQYHRLPLS [GP_Gibbs]: -0.29 (6 of 6 replicates; controls 1 of 18)

Empty control strains, which show no peptide, gave a signal in 4% of pairings with all light chain designs; the median was 2.64 and 95% of these signals were weaker than 1.59. No background was subtracted. The control count says in how many pairings with the empty strains this scFv gave a signal. A sequence measured in both rounds can read differently, since the two assays cover different ranges.